# From PubChem BioAssay AID1457 (National Center for Advancing Translational Sciences (NCATS), 2008)
# Only a part is listed here, and it is no random draw. Activity calls are given as the source filed them. Calls follow the shape of the dose curve; as a rule, active = well fitted inhibition curve with a large enough effect; inconclusive = small, poorly fitted or top-dose-only effect; inactive = no such curve, though single readings can be large or run the other way.
# Assay: qHTS Assay for Identifying the Cell-Membrane Permeable IMPase Inhibitors: Potentiation with Lithium;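 also: IP1 builds up when IMPase is blocked and the TR-FRET signal falls; plate controls were basal vehicle for no effect and high inhibitor control for full effect; nearly all actives have a fitted effect of over 50% in size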
# Details: CHO-M1 cells, IP1 TR-FRET (IP-One), carbachol + lithium; at 59.4 µM (top of the series) unless noted
row,Structure (SMILES),"activity, negative = IMPase inhibition"
1,CCN1CCC(Nc2cccc(F)c2)CC1,inactive: -1.77%
2,CN(C)c1ccc(C(=O)NCC2(N3CCCCC3)CCCCC2)cc1,inactive: 5.35%
3,Fc1ccccc1NC1CCN(Cc2ccccc2)CC1,inactive: -2.07% [at 38.3 µM]
4,CCC(CO)(C(=O)OC1CN2CCC1CC2)c1ccccc1 (stereo not given),inactive: 32.1% [at 38.3 µM]
5,COc1cc(OC)cc(C(=O)NCC2(N3CCOCC3)CCCCC2)c1,inactive: 0.531%
6,CCOc1ncccc1C(=O)NCC1(N2CCOCC2)CCCCC1,inactive: 31.8% [at 38.3 µM]
7,CC(C)(C)OC(=O)N1CCC(Nc2ccccc2)CC1,inactive: -6.07%
8,O=C(O)C1(Nc2ccccc2)CCN(Cc2ccccc2)CC1,inactive: 10.5%
9,N/C(=N\O)c1c(N)no[n+]1[O-],inactive: -5.58% [at 38.3 µM]
10,O=C(OC1CN2CCC1CC2)C1c2ccccc2C=Cc2ccccc21 (stereo not given),inactive: 26%
11,COc1ccc(C(=O)NCC2(N3CCOCC3)CCCCC2)cc1OC,inactive: -5.5%
12,c1ccc(CN2CCC(Nc3ccccc3)CC2)cc1,inactive: 28.9% [at 38.3 µM]
13,ClCCOP(OCCCl)OCCCl,inactive: -6.81%
14,N#Cc1ccc(C(=O)NCC2(N3CCCCC3)CCCCC2)cc1,inactive: 15.7%
15,O=[N+]([O-])c1cc([N+](=O)[O-])c(NCC2CCS(=O)(=O)C2)c([N+](=O)[O-])c1 (stereo not given),inactive: 9.04%
16,COc1ccc(NC2CCN(C(=O)OC(C)(C)C)CC2)cc1,inactive: -0.0592%
17,CN1CCN(CCOC(=O)C(O)(c2ccccc2)c2ccccc2)CC1,inactive: 27.1%
18,O=C(NCC1(N2CCOCC2)CCCCC1)c1cc(=O)[nH]c2ccccc12,inactive: -17.5% [at 38.3 µM]
19,O=C(NCC1(N2CCCCC2)CCCCC1)c1cccc([N+](=O)[O-])c1,inactive: 16.3%
20,N#CC1(Nc2ccccc2)CCN(CCc2ccccc2)CC1,inactive: 3.96% [at 38.3 µM]
21,NC1CCCCC1.NP(=O)(O)N(CCCl)CCCl,inactive: -5.53%
22,COc1ccc(CN(CCCl)CCCl)cc1Cl,inactive: 15.6%
23,CN(C)c1cccc(C(=O)NCC2(N3CCCCC3)CCCCC2)c1,inactive: 6.62%
24,CC(C)c1ccc(NC2CCN(C(=O)OC(C)(C)C)CC2)cc1,inactive: 8.76%
25,CCOP(=O)(Cl)Cl,inactive: -11.8%
26,O=C(NCC1(N2CCOCC2)CCCCC1)c1cc2ccccc2o1,inactive: 7.37% [at 38.3 µM]
27,CCOC(=O)N1CCC(Nc2ccc(OC)cc2)CC1,inactive: 3.15%
28,O=C(OC1CN2CCC1CC2)C1c2ccccc2Oc2ccccc21 (stereo not given),inactive: 19.6% [at 38.3 µM]
29,COc1ccc(C(=O)NCC2(N3CCCCC3)CCCCC2)c(OC)c1OC,inactive: 8.16%
30,COc1ccc(NC2CCN(CCc3ccccc3)CC2)c(OC)c1,inactive: 5.62% [at 38.3 µM]
